{"source": "patent US20030232862A1", "about": "“Method for treating a patient with neoplasia using Iressa” (priority 2002, published 2003)", "origin": "cited, not measured here", "tested_on": "EGFR, HER2, and HER3 phosphorylation", "conditions": "cited from earlier work"}
{"compound": "COc1cc2ncnc(Nc3ccc(F)c(Cl)c3)c2cc1OCCCN1CCOCC1", "note": "[Iressa, 4-quinazolinamine, N-(3-chloro-4-fluorophenyl)-7-methoxy-6-[3-(4-morpholinyl)propoxy]-(9CI)]", "values": [{"measurement": "EGFR, HER2, and HER3 phosphorylation", "value": "eliminates EGFR, HER2, and HER3 phosphorylation"}]}
